According to PMC10201506 (Signal Transduction and Targeted Therapy, 2023):

Legend:
[1] = biological target: T1, caspase-3 (Homo sapiens, UniProt P42574); experiment: Caspase-3 activity assay; assay type: biochemical; conditions: positive control; read-out: IC50 Caspase3
T1 sequence (P42574 29-277): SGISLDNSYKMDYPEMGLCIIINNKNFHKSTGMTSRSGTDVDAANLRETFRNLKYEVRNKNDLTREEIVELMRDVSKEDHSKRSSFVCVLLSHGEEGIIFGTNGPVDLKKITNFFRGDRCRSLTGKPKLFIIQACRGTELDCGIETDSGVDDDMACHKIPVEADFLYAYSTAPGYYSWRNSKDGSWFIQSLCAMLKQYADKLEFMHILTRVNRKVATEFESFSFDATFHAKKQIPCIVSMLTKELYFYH
Procedure: The rate of hydrolysis product, pNA, was monitored continuously by change of absorbance at 405 nm for 5 min, and the initial rate of hydrolysis was determined using the early linear region of the enzymatic reaction curve.

[2] = biological target: Thrombin (Homo sapiens, UniProt P00734); experiment: Thrombin enzymatic assay; assay type: biochemical; conditions: positive control
Procedure: Thrombin enzymatic assay was carried out as follows: Thrombin buffer was 50 mM Tris-HCl pH 8.0,150 mM NaCl 2.5 mM CaCl2, the activity of Thrombin was monitored using the substrate Benzoyl-FVR-AMC (Calbiochem, Darmstadt, Germany) with a final concertration of 20μM.

Compound | IC50 [1] [nM] | IC50 [2] [nM]
CC(=O)N[C@@H](CC(=O)O)C(=O)N[C@@H](CCC(=O)O)C(=O)N[C@H](C(=O)N[C@H](C=O)CC(=O)O)C(C)C [Ac-DEVD-CHO] | 1.7 ± 0.3 | –
CC1CNc2c(cccc2S(=O)(=O)N[C@@H](CCCNC(=N)N)C(=O)N2CC[C@@H](C)C[C@@H]2C(=O)O)C1 (some centres unmarked) [Argatroban] | – | 6 ± 1.3
